Measurements from patent publication US20090143283A1, “Pituitary Adenylate Cyclase Activating Peptide (PACAP) Receptor (VPAC2) Agonists and Their Pharmacological Methods of Use” (Bayer Pharmaceuticals Corporation, priority 2004, published 2009).

The chains behind the UniProt entries cited, without tags or fusion partners.
UniProt P27487, whole entry, species assumed: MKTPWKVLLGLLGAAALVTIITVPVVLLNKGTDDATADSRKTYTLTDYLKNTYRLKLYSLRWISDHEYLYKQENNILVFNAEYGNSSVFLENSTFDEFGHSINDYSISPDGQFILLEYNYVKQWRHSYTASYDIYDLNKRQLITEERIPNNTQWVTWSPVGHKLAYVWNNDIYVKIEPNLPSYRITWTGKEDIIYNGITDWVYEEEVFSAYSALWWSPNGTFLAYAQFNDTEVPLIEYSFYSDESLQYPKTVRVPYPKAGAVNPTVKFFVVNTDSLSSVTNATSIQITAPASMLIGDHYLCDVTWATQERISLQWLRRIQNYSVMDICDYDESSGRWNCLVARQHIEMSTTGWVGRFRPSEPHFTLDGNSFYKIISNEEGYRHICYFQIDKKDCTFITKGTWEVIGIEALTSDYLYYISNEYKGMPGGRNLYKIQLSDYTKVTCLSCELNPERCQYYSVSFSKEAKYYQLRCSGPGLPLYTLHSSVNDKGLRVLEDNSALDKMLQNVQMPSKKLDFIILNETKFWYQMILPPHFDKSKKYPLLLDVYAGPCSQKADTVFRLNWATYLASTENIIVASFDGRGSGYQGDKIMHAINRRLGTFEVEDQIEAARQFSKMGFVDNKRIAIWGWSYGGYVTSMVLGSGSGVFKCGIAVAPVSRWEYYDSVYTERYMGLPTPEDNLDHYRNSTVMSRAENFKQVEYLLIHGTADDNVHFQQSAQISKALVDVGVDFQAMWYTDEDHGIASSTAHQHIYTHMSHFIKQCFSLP

Tests used:
[1] = cited from earlier work
DPP4 = DPP4 (Homo sapiens, UniProt P27487); experiment: Stability of peptides to proteolytic cleavage by DPP4; format: in vitro ADME; details: 37° C., DPP-IV in 100 mM HEPES pH 7.4; 0, 1, 5, 24 hr; FIG. 2a
Description: The formulations described in Example 4 were placed in constant stability chamber. Peptides were also analyzed for stability to degradation in solutions of DPP4 and in plasma. Samples were removed periodically for analysis by capillary electrophoresis, mass spectrometry, Edman degradation, ELISA, and assays of peptide activity, which are sensitive methods to detect degradation of polypeptide. The area of various peaks was summed and the area for peak of the parent polypeptide is divided by the total peak area. The quotient is the % purity. Since there are impurities present in the fresh polypeptide, the purity change is normalized by dividing the purity at different time point by the initial purity. For stability to DPP4 and plasma, peptides at 20 pmol/μl were incubated at 37° C. in the presence of 300 μM DPP-IV in 100 mM HEPES, pH 7.4 (FIG. 2a). At various timepoints, the reaction (2 μl aliquot) was terminated by addition of 1 μM DPP-IV inhibitor and freezing. For MALDI mass spectrometric analysis, T=0 hr, 1 hr, 5 hr, and 24 hr timepoints were evaluated. The results are plotted as percent intact peptide or peptide derivative as compared to degradation products.

Substance: PACAP-27
- half-life in vivo [1]: < 10 min
- stability to proteolytic cleavage by DPP4 (DPP4): cleaved at longer time points
